Experimental data taken from US8709738B2, “Methods for predicting cardiac toxicity” (Quintiles Transnational Corporation, priority 2006, dated 2014).

Key:
Type in all cases: cell-based
[1] = tested on: normal fat cells grown in culture; assay: Lipid stored in cultured fat cells (Oil red O staining); settings: cell type not given
Text: Treatment of otherwise normal cells or cells having normal protein tyrosine kinase regulation with the kinase inhibitors of the invention affects fatty acid metabolism by increasing or decreasing the capacity of such cells to oxidize fatty acids. […] This observation has also been made in cardiac cells. Such studies can be conducted using Oil red 0 staining for lipids. Thus, treatment with lapatinib (TYKERB®) and other Her1/Her2 tyrosine kinase inhibitors cause a loss of fat from such cells that is consistent with reduced lipid synthetic rates and/or increased lipid oxidation rates.
In addition, tyrosine kinase inhibitors can be used to reduce fat in cells, particularly cells that are otherwise normal or that lack protein tyrosine kinase activity mediated disease. To this end at least a portion of a mammal or tissue can be treated with a kinase inhibitor such that the amount of lipid in the cells is reduced. Any suitable kinase inhibitor can be used. Methods for determining suitable inhibitors are well known. For example, samples of adipocytes can be grown in the presence and absence of a kinase inhibitor and stained with Oil red 0 by known methods to determine whether the kinase inhibitor causes a reduction in stored fat. Those kinase inhibitors that cause an observable reduction in fat storage are suitable for the present invention. […]

[2] = tested on: cardiomyocytes cells; assay: ERRα and MCAD in cardiomyocytes treated with kinase inhibitors; settings: FIG. 8
Text: FIG. 8 is a photograph of ERRα and MCAD in cardiomyocytes cells with and without treatment by various kinase inhibitors.
ERRα plays a role in lipid metabolism in cardiac cells, and MCAD is an enzyme that breaks down lipids and fatty acids. Mutations in MCAD is a common genetic disorder, especially in those of northern European descent.

[3] = tested on: primary human cardiac myocytes; assay: Lipid staining of cardiomyocytes; settings: FIG. 4
Text: FIG. 4 are photographs of primary human cardiac myocytes grown under various conditions and stained for lipids.
FIG. 5 is a bar graph illustrating the percentage of human cardiomyocytes testing positive for lipids under various conditions.
(§1) This is shown by the staining of lipids with oil red (lipids are represented by red dots) against the background counterstaining of the cells (hematoxylin). […] Lipids increase in cells treated with Herceptin and NDF (compared with untreated cells) but not decrease in cells treated with GW2974.

[4] = tested on: Au565 cells; assay: Oil red lipid staining of Au565 cells; settings: FIG. 2 and FIG. 3
Text: FIG. 3 are photographs of Au-565 cells treated by GW-2974 and stained for lipids.
as §1

[5] = tested on: HER2-expressing human cardiomyocytes; assay: AMPK activation, ATP production and TNFα-induced apoptosis in cardiomyocytes
Text: The effects of specific HER2-targeted therapies on AMPK and consequently energy production may predict for the risk associated cardiomyopathy and provide a novel HER2-directed therapeutic strategy to protect myocardium from the killing effects of TNFα or other pro-apoptotic stimuli, following acute ischemic injury.

HERCEPTIN®: the monoclonal antibody HERCEPTIN®; HER2-targeted therapy
lipid content of cells [1]: appears to increase | MCAD expression [2]: expressed | level of ERRα [2]: diminished slightly | lipids in cardiomyocyte cells compared with untreated cells [3]: increase | lipids in Au565 cells (oil red staining) [4]: result in the production of lipids | AMPK activation [5]: do not activate AMPK | cardiomyocyte apoptosis / cell death induced by TNFα ([5]; TNFα): enhanced cardiomyocyte cell death
